Assay results taken from US20040023951A1, “Combination therapy for treatment of psychoses” (priority 2002, published 2004).

Tested on: Rats
Assay: Conditioned avoidance behavior in rats
Assay type: in vivo, rat
Description: Conditioned Avoidance Behavior in Rats:
In a conditioned avoidance test, animals learn to respond during a conditioned stimulus in order to avoid mild shock presentation. A response during the conditioned stimulus is termed an avoidance response, a response during shock is termed an escape response; a response failure is when the animal fails to respond during either the conditioned stimulus or the shock presentation and is indicative of motor impairment. […] Antipsychotic drugs decrease the percentage of avoidance responses without interfering with the ability of the animal to respond since the animals do emit escape responses. The percentage of response failures is considered a measure of motor impairment.
Rats were required to press a response lever in an experimental chamber in order to avoid or escape foot-shock. Each experimental session consisted of 50 trials. During each trial, the chamber was illuminated and a tone presented for a maximum of 10 sec. A response during the tone immediately terminated the tone and the houselight, ending the trial. In the absence of a response during the tone alone, tone+foot-shock (2.0 mA) was presented for a maximum of 10 sec. A response during shock presentation immediately terminated the shock, the tone and the houselights ending the trial.
If the effects are simply additive the results will be additive. If the effects of are synergistic, then the dose of second component required to produce full efficacy will be decreased.

[1] = first component dose 0.01 in combination with Xanomeline dose 10
[2] = first component dose 0.03 in combination with Xanomeline dose 10

## Cc1cc2c(s1)Nc1ccccc1N=C2N1CCN(C)CC1 [Olanzapine, 2-methyl-4-(4-methyl-1-piperazinyl)-10H-thieno[2,3-b][1,5]benzodiazepine]
[1]
  % Response Failures ± SEM: 1 ± 1%
[2]
  % Response Failures ± SEM: 0 ± 0%
First component dose 0.1 in combination with Xanomeline dose 10
  % Response Failures ± SEM: 0 ± 0%
First component dose 0.3 in combination with Xanomeline dose 10
  % Response Failures ± SEM: 17 ± 10%
First component dose 1.0 in combination with Xanomeline dose 10
  % Response Failures ± SEM: 6 ± 5%
Given alone, dose 1
  % Response Failures ± SEM: 0 ± 0%
Given alone, dose 3
  % Response Failures ± SEM: 1 ± 1%
Given alone, dose 10
  % Response Failures ± SEM: 5 ± 3%

## Cc1nc2n(c(=O)c1CCN1CCC(c3noc4cc(F)ccc34)CC1)CCCC2 [Risperidone, 3-[2-[4-(6-fluoro-1,2-benzisoxazol-3-yl)piperidino]ethyl]-2-methyl-6,7,8,9-tetrahydro-4H-pyrido[1,2-a]pyrimidin-4-one]
First component dose 0.001 in combination with Xanomeline dose 10
  % Response Failures ± SEM: 0 ± 0%
First component dose 0.003 in combination with Xanomeline dose 10
  % Response Failures ± SEM: 2 ± 1%
[1]
  % Response Failures ± SEM: 0 ± 0%
[2]
  % Response Failures ± SEM: 7 ± 4%
Given alone, dose 0.03 (dose unit not given), measure of motor impairment
  % Response Failures ± SEM: 0 ± 0%
Given alone, dose 0.1
  % Response Failures ± SEM: 0 ± 0%
Given alone, dose 0.3
  % Response Failures ± SEM: 2 ± 2%
Given alone, dose 1
  % Response Failures ± SEM: 38 ± 9%
